We go through one substance from US20130189203A1, “COSMETIC ADDITIVES CONTAINING ALKALI PHOSPHATES” (BK Giulini GmbH, priority 2012, published 2013).

This data set in a line: stability of the sun protection formulations with additive.

As for Sodium polyphosphate [Carephos N], the “stability of the formulation with the additive” value was “stable”.
